Measurements: ChEMBL document CHEMBL1123706, “Design of alternate substrate inhibitors of serine proteases. Synergistic use of alkyl substitution to impede enzyme-catalyzed deacylation” (J Med Chem, 1987)

Experiments:
[1] = biological target: T1, Neutrophil elastase (Homo sapiens) (UniProt P08246); test: Rate of deacylation by human leukocyte elastase
T1 sequence (whole entry): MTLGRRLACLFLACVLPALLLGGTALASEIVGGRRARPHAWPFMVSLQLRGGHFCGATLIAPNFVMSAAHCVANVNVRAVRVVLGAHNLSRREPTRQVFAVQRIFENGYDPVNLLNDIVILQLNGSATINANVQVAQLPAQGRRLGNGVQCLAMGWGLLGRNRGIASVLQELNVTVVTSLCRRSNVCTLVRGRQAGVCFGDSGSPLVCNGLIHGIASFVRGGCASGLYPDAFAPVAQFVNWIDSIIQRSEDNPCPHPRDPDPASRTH
Summary of the method: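 Human leukocyte elastase. koff was mostly calculated as k1·Ki from progress curves, with coumarin substrate at about 0.04 Km in HEPES/1 M NaCl/Brij 35 buffer, pH 7.8, 25 °C. Otherwise, acyl enzyme was prepared and isolated on Sephadex G-25 at low pH. Deacylation was followed as the return of activity after dilution into assay buffer containing fluorogenic substrate.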

[2] = biological target: T1, Neutrophil elastase (Homo sapiens)

`Cc1cccc2nc(NC(C)C)oc(=O)c12` gave a k off [1] of 1.8e-05 s⁻¹ and a k1 [2] of 11800 M⁻¹ s⁻¹.

`CCCCNc1nc2ccccc2c(=O)o1` was tested, and the k off [1] was 0.0055 s⁻¹ and the k1 [2] was 66000 M⁻¹ s⁻¹.

With `Nc1nc2ccccc2c(=O)o1` the k off [1] was 0.051 s⁻¹ and the k1 [2] was 810 M⁻¹ s⁻¹.

In the case of `CCc1cccc2nc(N)oc(=O)c12`, the k1 [2] is reported as < 15 M⁻¹ s⁻¹.

Work on `CCCNc1nc2ccccc2c(=O)o1` yielded a k off [1] of 0.041 s⁻¹ and a k1 [2] of 450000 M⁻¹ s⁻¹.

Work on `CCc1cccc2nc(NC(C)C)oc(=O)c12` yielded a k off [1] of 6.6e-05 s⁻¹ and a k1 [2] of 70000 M⁻¹ s⁻¹.
